Source: patent US9918972B2, “Treatment of leukemia with artemisinin derivatives and combinations with other antineoplastic agents” (UNIVERSITY OF MARYLAND, BALTIMORE, priority 2014, dated 2018)

Test system: MOLM14
Assay: Kinase inhibitor drug combination screen (MTS, Bliss-independence analysis)

Question: For C#Cc1cccc(Nc2ncnc3cc(OCCOC)c(OCCOC)cc23)c1 [Erlotinib], which “fractional inhibition over Bliss prediction” value is on record?
Answer: MOLM14 (0.12)
